# In publication PMC9959258, “Discovery of Polyphenolic Natural Products as SARS-CoV-2 M^pro Inhibitors for COVID-19” (Pharmaceuticals, 2023):
# Target: SARS-CoV-2 M^pro (Severe acute respiratory syndrome coronavirus 2, UniProt P0DTD1)
# Assay: biochemical
# Settings: FRET assay, 50 nM M^pro, 10 min preincubation
structure (smiles),measurement,value
Cc1coc2c1C(=O)C(=O)c1c-2ccc2c(C)cccc12 [Tanshinone I],IC50,> 10 µM
